From patent US4694007A (priority 1986, dated 1987)

Biological target: T1, PC DHFR (Pneumocystis carinii, UniProt P16184)
T1 sequence (P16184 1-206): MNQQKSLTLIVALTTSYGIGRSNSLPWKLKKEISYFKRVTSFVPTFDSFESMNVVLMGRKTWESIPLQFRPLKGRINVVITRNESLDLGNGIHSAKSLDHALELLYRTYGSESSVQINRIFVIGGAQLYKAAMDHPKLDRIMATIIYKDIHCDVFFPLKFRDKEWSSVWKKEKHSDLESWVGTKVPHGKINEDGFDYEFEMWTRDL

COc1cc(NCc2ccc3nc(N)nc(N)c3c2C)cc(OC)c1OC [Trimetrexate, 2,4-diamino-5-methyl-6-[(3,4,5-trimethoxyanilino)methyl]quinazoline]
Ability to compete with methotrexate for PC DHFR binding: considerably more potent
